Source: patent US9676701B2, “Cyclopropylamine derivatives useful as LSD1 inhibitors” (Oryzon Genomics, S.A., priority 2010, dated 2017)
Counter-ions that a name gives are not always drawn. Like-named read-outs stand apart in the source and are kept apart here.

Sequences of proteins named here, by UniProt entry; tags and fusion partners are left off.
UniProt P27338, whole entry: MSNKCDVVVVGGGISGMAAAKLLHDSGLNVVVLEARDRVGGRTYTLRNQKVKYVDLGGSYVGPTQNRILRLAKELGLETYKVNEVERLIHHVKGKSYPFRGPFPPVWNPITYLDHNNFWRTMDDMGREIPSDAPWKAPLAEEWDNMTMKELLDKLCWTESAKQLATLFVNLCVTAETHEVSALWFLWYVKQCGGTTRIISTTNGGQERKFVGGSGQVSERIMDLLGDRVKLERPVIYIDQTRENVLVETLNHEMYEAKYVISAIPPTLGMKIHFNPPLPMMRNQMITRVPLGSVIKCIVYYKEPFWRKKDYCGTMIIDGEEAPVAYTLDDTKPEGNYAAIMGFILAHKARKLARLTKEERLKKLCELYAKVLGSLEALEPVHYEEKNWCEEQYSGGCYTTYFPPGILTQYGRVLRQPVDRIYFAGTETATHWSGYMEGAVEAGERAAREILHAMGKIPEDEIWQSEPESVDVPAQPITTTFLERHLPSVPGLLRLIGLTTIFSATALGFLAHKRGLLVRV
UniProt P21397, whole entry: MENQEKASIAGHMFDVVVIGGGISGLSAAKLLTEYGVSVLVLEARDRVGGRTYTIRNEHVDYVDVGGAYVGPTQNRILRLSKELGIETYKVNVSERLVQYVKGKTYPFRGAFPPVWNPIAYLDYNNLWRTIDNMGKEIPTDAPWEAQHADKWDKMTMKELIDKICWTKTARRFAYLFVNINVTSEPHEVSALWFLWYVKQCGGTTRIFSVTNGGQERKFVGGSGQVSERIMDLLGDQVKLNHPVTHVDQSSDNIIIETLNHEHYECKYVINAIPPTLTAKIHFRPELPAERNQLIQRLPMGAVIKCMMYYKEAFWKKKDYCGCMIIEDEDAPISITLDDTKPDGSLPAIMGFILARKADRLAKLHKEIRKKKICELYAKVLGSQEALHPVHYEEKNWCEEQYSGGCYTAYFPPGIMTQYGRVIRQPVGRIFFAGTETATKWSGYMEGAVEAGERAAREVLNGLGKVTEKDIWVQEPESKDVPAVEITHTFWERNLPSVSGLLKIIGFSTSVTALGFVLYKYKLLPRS

Experiments:
MAO-B = MAO-B (Homo sapiens (Human), UniProt P27338); conditions: read-out: MAO-B (Ki)
MAO-A [1] = molecular target: T1, MAO-A (Homo sapiens (Human), UniProt P21397); conditions: read-out: MAO-A (Ki)
MAO-A [2] = molecular target: T1, MAO-A; test: biochemical

Ki (MAO-B)	Ki (MAO-A [1])	Ki (MAO-A [2])	Compound
1000 to 40000 nM			COc1cc(-c2ccc([C@H]3C[C@@H]3N)cn2)ccc1C (relative stereo) [Example 22, (trans)-2-(6-(3-methoxy-4-methylphenyl)pyridin-3-yl)cyclopropanamine hydrochloride]
1000 to 40000 nM	1000 to 40000 nM		COc1cc(Cl)cc(-c2ccc([C@H]3C[C@@H]3N)cn2)c1 (relative stereo) [Example 42, (trans)-2-(6-(3-chloro-5-methoxyphenyl)pyridin-3-yl)cyclopropanamine hydrochloride]
1000 to 40000 nM	1000 to 40000 nM		N[C@H]1C[C@@H]1c1ccc(-c2cccc(NS(=O)(=O)c3ccccc3)c2)nc1 (relative stereo) [Example 64, N-(3-(5-((trans)-2-aminocyclopropyl)pyridin-2-yl)phenyl)benzenesulfonamide hydrochloride]
1000 to 40000 nM			N#Cc1ccc(O)c(-c2ccc([C@H]3C[C@@H]3N)cc2)c1 (relative stereo) [Example 87, 4′-((trans)-2-aminocyclopropyl)-6-hydroxybiphenyl-3-carbonitrile hydrochloride]

The next lines start with the molecule.

Compound	Ki (MAO-B)	Ki (MAO-A [1])	Ki (MAO-A [2])
CS(=O)(=O)Nc1ccc(O)c(-c2ccc([C@H]3C[C@@H]3N)cn2)c1 (relative stereo) [Example 90, N-(3-(5-((trans)-2-aminocyclopropyl)pyridin-2-yl)-4-hydroxyphenyl)methanesulfonamide hydrochloride]	1000 to 40000 nM	1000 to 40000 nM	
N#Cc1ccc(S(=O)(=O)Nc2cccc(-c3ccc([C@H]4C[C@@H]4N)cn3)c2)cc1 (relative stereo) [Example 99, N-(3-(5-((trans)-2-aminocyclopropyl)pyridin-2-yl)phenyl)-4-cyanobenzenesulfonamide hydrochloride]	1000 to 40000 nM		100 to 1000 nM
N#Cc1ccccc1S(=O)(=O)Nc1cccc(-c2ccc([C@H]3C[C@@H]3N)cn2)c1 (relative stereo) [Example 101, N-(3-(5-((trans)-2-aminocyclopropyl)pyridin-2-yl)phenyl)-2-cyanobenzenesulfonamide hydrochloride]	1000 to 40000 nM	1000 to 40000 nM	
N[C@H]1C[C@@H]1c1ccc(-c2cc(O)cc(C(F)(F)F)c2)nc1 [Example 48, 3-(5-((trans)-2-amninocyclopropyl)pyridin-2-yl)-5-(trifluoromethyl)phenol hydrochloride]	1000 to 40000 nM	1000 to 40000 nM	
